The assay deals with Protein farnesyltransferase (Homo sapiens, UniProt P49354+P49356). Nature of the assay: Inhibition of Farnesyltransferase. The format is protein-complex assay.

This note sets out measurements from ChEMBL document CHEMBL1149187, “Design, synthesis, and biological activity of 4-[(4-cyano-2-arylbenzyloxy)-(3-methyl-3H-imidazol-4-yl)methyl]benzonitriles as potent and selective farnesyltransferase inhibitors” (J Med Chem, 2004).

In turn, `NC(=O)N1CCC(CC(=O)N2CCC([C@H]3c4ncc(Br)cc4CCc4cc(Cl)cc(Br)c43)CC2)CC1` [LONAFARNIB] came in with an IC50 of 2 nM.

As usually defined, the IC50 is the concentration that gives 50% inhibition.
